Measured values from patent US20160138073.
Numbering of substitutions follows the chain as printed. Names and notes keep the numbering of the source.

T1: α-glycated hexapeptide Fru-Val-His-Leu-Thr-Pro-Glu
T1 chain: VHLTPE

B1: FPOX-20 (protein)
chain: MAPRANTKIIVVGGGGTMGSSTALHLLRAGYTPSNITVLDTYPIPSAQSAGYDLNKIFGISGANKPDLQLSLEAADMWKNDPLFKPFFHNVGQMDVSSTEEGIKKLRKRYQSLLRAGIGLEKTNFLLESEDEILAKAPHFTREQIKGWKGLFCGDGGWLAAAKAINAIGQFLKEQGVKFGFGEAGTFKKPLFADADEKTCIGVETVDGTKYYADKVVLAAGAWSSTLVDLEEQCVSKAWVFAHIQLTPAEAAAYKNTPVIYDGDYGFFIEPDENGIIKVCDEFPGFTHFKMHQPYGSPVPKLISVPRSHAKHPTDTYPHASEVTIKKAINRFLPRFNDKELFNRAMCWCTDTADANLLVCEHPRWKGFYLATGDSGHSFKLLPNIGKHVVELLEGRLESVFKDAWRWRPGSGDALKSRRAAPAKDLADMPGWRNEAKM
B2: FPOX-32 (protein)
chain: B1 chain with P66H, A75F, D95E, K105R, K108R
B3: FPOX-42 (protein)
chain: B1 chain with P66H, A75F, K105R, K108R, A355S
B4: FPOX-18A (protein)
chain: B1 chain with S71C, A75L, K108M, R115D
B5: FPOX-18B (protein)
chain: B1 chain with A75L, K108M, R115D
B6: FPOX-16 with additional mutation R63A (protein)
chain: B1 chain with S61G, G62L, S71Y, A75L, K108M, R115D
B7: FPOX-17 (protein)
chain: B1 chain with G62L, A63R, S71Y, A75L, K108M, R115D
B8: FPOX-17 with additional mutation R63A (protein)
chain: B1 chain with G62L, S71Y, A75L, K108M, R115D
B9: FPOX-18 (protein)
chain: B1 chain with S71Y, A75L, K108M, R115D
B10: FPOX-18 with additional mutation Q93E (protein)
chain: B1 chain with S71Y, A75L, Q93E, K108M, R115D
B11: FPOX-18 with additional mutation F267Y (protein)
chain: B1 chain with S71Y, A75L, K108M, R115D, F267Y
B12: FPOX-18C (protein)
chain: B1 chain with A75L, K108M, R115N
B13: FPOX-18D (protein)
chain: B1 chain with A75L, K108M
B14: FPOX-21 (protein)
chain: B1 chain with A75F
B15: FPOX-22 (protein)
chain: B1 chain with S34T, A75F
B16: FPOX-23 (protein)
chain: B1 chain with Y52H, A75F
B17: FPOX-24 (protein)
chain: B1 chain with I57V, A75F
B18: FPOX-25 (protein)
chain: B1 chain with P66H, A75F
B19: FPOX-26 (protein)
chain: B1 chain with A75F, D95E
B20: FPOX-27 (protein)
chain: B1 chain with A75F, K105R
B21: FPOX-28 (protein)
chain: B1 chain with A75F, K108R
B22: FPOX-29 (protein)
chain: B1 chain with A75F, A355S
B23: FPOX-30 (protein)
chain: B1 chain with P66H, A75F, D95E
B24: FPOX-31 (protein)
chain: B1 chain with P66H, A75F, D95E, K105R
B25: FPOX-33 (protein)
chain: B1 chain with S34T, P66H, A75F, D95E, K105R, K108R
B26: FPOX-34 (protein)
chain: B1 chain with Y52H, P66H, A75F, D95E, K105R, K108R
B27: FPOX-35 (protein)
chain: B1 chain with I57V, P66H, A75F, D95E, K105R, K108R
B28: FPOX-36 (protein)
chain: B1 chain with P66H, A75F, K108R
B29: FPOX-37 (protein)
chain: B1 chain with P66H, A75F, K105R, K108R
B30: FPOX-38 (protein)
chain: B1 chain with P66H, A75F, A355S
B31: FPOX-39 (protein)
chain: B1 chain with P66H, A75F, D95E, A355S
B32: FPOX-40 (protein)
chain: B1 chain with P66H, A75F, K105R, A355S
B33: FPOX-41 (protein)
chain: B1 chain with P66H, A75F, K108R, A355S
B34: FPOX-43 (protein)
chain: B1 chain with S34T, P66H, A75F, K105R, K108R, A355S
B35: FPOX-44 (protein)
chain: B1 chain with Y52H, P66H, A75F, K105R, K108R, A355S

What was measured:
[1] = target: T1, α-glycated hexapeptide …
[2] = target: hemoglobin A1c (in human hemocyte-derived hemolysate sample), P69905

Protein | Activity ratio with respect to FPOX-15 (FPOX-15 defined as 1) [1] | Activity ratio with respect to FPOX-19 (FPOX-19 defined as 1) [1] | also measured
B1 | 7240 |  | Activity ratio with respect to FPOX-18 (FPOX-18 defined as 1) [1]: 38; Specific activity (mU/mg) [1]: 22.9 mU/mg; ΔAbs(reaction) (glycated hemoglobin oxidase activity) (absorbance, 660 nm/750 nm) [2]: 0.08
B2 | 17700 | 3.3 | Specific activity (mU/mg) [1]: 64.7 mU/mg; ΔAbs(reaction) (glycated hemoglobin oxidase activity) (absorbance, 660 nm/750 nm) [2]: 0.235
B3 | 25500 | 4.7 | Specific activity (mU/mg) [1]: 92.1 mU/mg; ΔAbs(reaction) (glycated hemoglobin oxidase activity) (absorbance, 660 nm/750 nm) [2]: 0.246
B4 | 1140 |  | ΔAbs(reaction) (glycated hemoglobin oxidase activity) (absorbance, 660 nm/750 nm) [2]: 0.017
B5 | 1540 |  | Activity ratio with respect to FPOX-18 (FPOX-18 defined as 1) [1]: 8.1; ΔAbs(reaction) (glycated hemoglobin oxidase activity) (absorbance, 660 nm/750 nm) [2]: 0.021
B6 | 171 |  | Activity ratio with respect to FPOX-16 (FPOX-16 defined as 1) [1]: 2.7
B7 | 67.7 |  | Activity ratio (glycated hexapeptide oxidase activity, FPOX-15 defined as 1) [1]: 67.7; Activity ratio with respect to FPOX-17 (FPOX-17 defined as 1) [1]: 1
B8 | 178 |  | Activity ratio with respect to FPOX-17 (FPOX-17 defined as 1) [1]: 2.6
B9 | 190 |  | Activity ratio with respect to FPOX-18 (FPOX-18 defined as 1) [1]: 1
B10 | 257 |  | Activity ratio with respect to FPOX-18 (FPOX-18 defined as 1) [1]: 1.3
B11 | 282 |  | Activity ratio with respect to FPOX-18 (FPOX-18 defined as 1) [1]: 1.5
B12 | 2920 |  | Activity ratio with respect to FPOX-18 (FPOX-18 defined as 1) [1]: 15.3
B13 | 3610 |  | Activity ratio with respect to FPOX-18 (FPOX-18 defined as 1) [1]: 19
B14 | 7000 |  | 
B15 | 8490 | 1.6 | 
B16 | 8490 | 1.6 | 
B17 | 9190 | 1.7 | 
B18 | 12700 | 2.3 | 

Protein | Activity ratio with respect to FPOX-15 (FPOX-15 defined as 1) [1] | Activity ratio with respect to FPOX-19 (FPOX-19 defined as 1) [1] | also measured
B19 | 9900 | 1.8 | 
B20 | 10600 | 2 | 
B21 | 9900 | 1.8 | 
B22 | 17700 | 3.3 | 
B23 | 12700 | 2.3 | 
B24 | 14100 | 2.6 | 
B25 | 17000 | 3.1 | 
B26 | 15600 | 2.9 | 
B27 | 12000 | 2.2 | 
B28 | 19100 | 3.5 | 
B29 | 10600 | 2 | 
B30 | 22600 | 4.2 | 
B31 | 19800 | 3.6 | 
B32 | 21900 | 4 | 
B33 | 24800 | 4.6 | 
B34 | 24800 | 4.6 | 
B35 | 25500 | 4.7 | 
